Assay results reported in ChEMBL document CHEMBL5230144, “Synthesis and Biological Evaluation of Celastrol Derivatives with Improved Cytotoxic Selectivity and Antitumor Activities” (J Nat Prod, 2021).
Calls of active or inactive are those of the source. No cut-off for these calls is given here.

Protein sequences, listed by entry. Tags and fused reporters are not part of them. Lines headed by an entry give the natural chain unless they say otherwise; changes in a name come on top.
UniProt P08238: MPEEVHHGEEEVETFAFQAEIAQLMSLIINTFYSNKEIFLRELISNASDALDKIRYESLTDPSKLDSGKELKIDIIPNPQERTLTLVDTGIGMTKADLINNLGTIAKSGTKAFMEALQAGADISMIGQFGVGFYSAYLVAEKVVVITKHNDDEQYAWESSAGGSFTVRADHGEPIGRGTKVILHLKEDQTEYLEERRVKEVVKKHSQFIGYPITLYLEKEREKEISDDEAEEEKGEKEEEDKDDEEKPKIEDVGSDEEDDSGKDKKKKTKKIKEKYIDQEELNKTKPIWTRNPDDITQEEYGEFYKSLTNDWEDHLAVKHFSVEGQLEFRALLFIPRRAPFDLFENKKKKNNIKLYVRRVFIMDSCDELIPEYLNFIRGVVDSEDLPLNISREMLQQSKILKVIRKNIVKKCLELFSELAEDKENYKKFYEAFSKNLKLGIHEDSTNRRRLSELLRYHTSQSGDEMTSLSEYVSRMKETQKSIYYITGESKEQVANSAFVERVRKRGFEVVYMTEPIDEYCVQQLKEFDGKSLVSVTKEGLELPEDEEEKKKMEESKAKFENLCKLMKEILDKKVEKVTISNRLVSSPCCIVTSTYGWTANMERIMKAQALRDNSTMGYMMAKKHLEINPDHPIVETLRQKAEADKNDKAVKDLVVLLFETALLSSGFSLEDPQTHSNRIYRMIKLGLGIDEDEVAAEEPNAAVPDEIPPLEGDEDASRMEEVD
UniProt Q16543: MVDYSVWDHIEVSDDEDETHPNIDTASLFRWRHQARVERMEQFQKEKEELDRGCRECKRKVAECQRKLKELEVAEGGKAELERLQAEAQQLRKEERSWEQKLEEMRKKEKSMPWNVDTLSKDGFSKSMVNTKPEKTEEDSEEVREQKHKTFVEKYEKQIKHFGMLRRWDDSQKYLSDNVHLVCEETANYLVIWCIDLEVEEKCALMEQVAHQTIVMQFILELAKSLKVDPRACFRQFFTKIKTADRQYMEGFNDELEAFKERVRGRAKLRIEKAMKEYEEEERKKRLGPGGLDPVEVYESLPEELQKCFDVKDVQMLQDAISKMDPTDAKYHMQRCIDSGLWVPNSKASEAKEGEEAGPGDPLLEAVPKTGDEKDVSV

Legend:
[1] = biological target: T1, Heat shock protein HSP 90-beta/Hsp90 co-chaperone Cdc37 (Homo sapiens, UniProt P08238+Q16543); experiment: Disruption of HSP90 and Cdc37 in human MDA-MB-231 cells at 200 nM measured after 48 hrs by immunoprecipitation method; format: cell-based
[2] = biological target: T1, Heat shock protein HSP 90-beta/Hsp90 co-chaperone Cdc37; experiment: Disruption of HSP90 and Cdc37 in human MDA-MB-231 cells assessed as decrease of phosphorylated AKT expression measured by Western blot analysis; format: cell-based
[3] = biological target: T1, Heat shock protein HSP 90-beta/Hsp90 co-chaperone Cdc37; experiment: Disruption of HSP90 and Cdc37 in human MDA-MB-231 cells assessed as decrease of CDK4 expression measured by Western blot assay; format: cell-based
[4] = biological target: T1, Heat shock protein HSP 90-beta/Hsp90 co-chaperone Cdc37; experiment: Disruption of HSP90 and Cdc37 in human MDA-MB-231 cells assessed as increase of Bax/Bcl2 ratio at 100 nM measured by Western blot assay; format: cell-based
[5] = biological target: T1, Heat shock protein HSP 90-beta/Hsp90 co-chaperone Cdc37; experiment: Disruption of HSP90 and Cdc37 in human MDA-MB-231 cells assessed as increase of Bax/Bcl2 ratio at 200 nM measured by Western blot assay; format: cell-based
[6] = biological target: T1, Heat shock protein HSP 90-beta/Hsp90 co-chaperone Cdc37; experiment: Disruption of HSP90 and Cdc37 in human MDA-MB-231 cells assessed as increase of cytochrome C release at 100 nM measured by Western blot assay; format: cell-based
[7] = biological target: T1, Heat shock protein HSP 90-beta/Hsp90 co-chaperone Cdc37; experiment: Disruption of HSP90 and Cdc37 in human MDA-MB-231 cells assessed as increase of cytochrome C release at 200 nM measured by Western blot assay; format: cell-based
[8] = biological target: T1, Heat shock protein HSP 90-beta/Hsp90 co-chaperone Cdc37; experiment: Disruption of HSP90 and Cdc37 in human MDA-MB-231 cells assessed as increase of caspase 3 release at 100 nM measured by Western blot assay; format: cell-based
[9] = biological target: T1, Heat shock protein HSP 90-beta/Hsp90 co-chaperone Cdc37; experiment: Disruption of HSP90 and Cdc37 in human MDA-MB-231 cells assessed as increase of caspase 3 release at 200 nM measured by Western blot assay; format: cell-based
[10] = biological target: T1, Heat shock protein HSP 90-beta/Hsp90 co-chaperone Cdc37; experiment: Disruption of HSP90 and Cdc37 in human MDA-MB-231 cells assessed as increase of caspase 9 release at 100 nM measured by Western blot assay; format: cell-based
[11] = biological target: T1, Heat shock protein HSP 90-beta/Hsp90 co-chaperone Cdc37; experiment: Disruption of HSP90 and Cdc37 in human MDA-MB-231 cells assessed as increase of caspase 9 release at 200 nM measured by Western blot assay; format: cell-based
MDA-MB-231 [12] = experiment: Induction of cell cycle arrest in human MDA-MB-231 cells assessed as accumulation of cells at G0/G1 phase measured after 48 hrs by PI staining based flow cytometry analysis; format: functional
MDA-MB-231 [13] = experiment: Induction of mitochondrial apoptosis in human MDA-MB-231 cells measured after 48 hrs by Hoechst 33258/ JC1 staining based flow cytometry assay; format: functional, cell-based
MDA-MB-231 [14] = experiment: Antitumour activity against human MDA-MB-231 cells xenografted in nude mouse assessed as inhibition of tumour growth at 10 mg/kg, po measured after 26 days relative to carboplatin; format: functional, organism-based; conditions: time 26.0 day
MDA-MB-231 [15] = experiment: Antitumour activity against human MDA-MB-231 cells xenografted in nude mouse assessed as decrease of phosphorylated Akt expression at 10 mg/kg, po measured after 26 days by Western blot assay; format: functional, organism-based; conditions: time 26.0 day
MDA-MB-231 [16] = experiment: Antitumour activity against human MDA-MB-231 cells xenografted in nude mouse assessed as increase of Bax expression at 10 mg/kg, po measured after 26 days by Western blot assay; format: functional, organism-based; conditions: time 26.0 day
MDA-MB-231 [17] = experiment: Antitumour activity against human MDA-MB-231 cells xenografted in nude mouse assessed as increase of Bcl2 expression at 10 mg/kg, po measured after 26 days by Western blot assay; format: functional, organism-based; conditions: time 26.0 day
MDA-MB-231 [18] = experiment: Antitumour activity against human MDA-MB-231 cells xenografted in nude mouse assessed as decrease of HSP90 expression at 10 mg/kg, po measured after 26 days by Western blot assay; format: functional, organism-based; conditions: time 26.0 day
MDA-MB-231 [19] = experiment: Antitumour activity against human MDA-MB-231 cells xenografted in nude mouse assessed as decrease of Cdc37 expression at 10 mg/kg, po measured after 26 days by Western blot assay; format: functional, organism-based; conditions: time 26.0 day
Danio rerio [20] = species: Danio rerio; experiment: Anti-angiogenesis activity in zebrafish embryo assessed as blockage of intersegmental vessels formation at 0.05 uM measured after 24 hrs by Flourescence assay; format: functional, organism-based
Danio rerio [21] = species: Danio rerio; experiment: Anti-angiogenesis activity in zebrafish embryo assessed as blockage of intersegmental vessels formation at 0.1 uM measured after 24 hrs by Flourescence assay; format: functional, organism-based
Danio rerio [22] = species: Danio rerio; experiment: Anti-angiogenesis activity in zebrafish embryo assessed as blockage of intersegmental vessels formation at 0.2 uM measured after 24 hrs by Flourescence assay; format: functional, organism-based

Activity [1]: Active
Activity [2]: Dose-Dependent Effect
Activity [3]: Dose-Dependent Effect
Activity [4]: Active
Activity [5]: Active
Activity [6]: Active
Activity [7]: Active
Activity [8]: Active
Activity [9]: Active
Activity [10]: Active
Activity [11]: Active
Structure (SMILES): C#CCOC(=O)[C@]1(C)CC[C@]2(C)CC[C@]3(C)C4=CC=C5C(=CC(=O)C(OC(=O)N6CCC(N7CCCCC7)CC6)=C5C)[C@]4(C)CC[C@@]3(C)[C@@H]2C1
Activity (MDA-MB-231 [12]): Dose-Dependent Effect
Activity (MDA-MB-231 [13]): Dose-Dependent Effect
Activity (MDA-MB-231 [14]): Active
Activity (MDA-MB-231 [15]): Active
Activity (MDA-MB-231 [16]): Active
Activity (MDA-MB-231 [17]): Active
Activity (MDA-MB-231 [18]): Active
Activity (MDA-MB-231 [19]): Active
Activity (Danio rerio [20]): Active
Activity (Danio rerio [21]): Active
Activity (Danio rerio [22]): Active
